The text below walks through data of patent publication US5714615A (priority 1994, dated 1998).

Sequences of proteins named here, by UniProt entry; tags and fusion partners are left off. Residues count along the entry.
UniProt O42275, 24-633 limits assumed: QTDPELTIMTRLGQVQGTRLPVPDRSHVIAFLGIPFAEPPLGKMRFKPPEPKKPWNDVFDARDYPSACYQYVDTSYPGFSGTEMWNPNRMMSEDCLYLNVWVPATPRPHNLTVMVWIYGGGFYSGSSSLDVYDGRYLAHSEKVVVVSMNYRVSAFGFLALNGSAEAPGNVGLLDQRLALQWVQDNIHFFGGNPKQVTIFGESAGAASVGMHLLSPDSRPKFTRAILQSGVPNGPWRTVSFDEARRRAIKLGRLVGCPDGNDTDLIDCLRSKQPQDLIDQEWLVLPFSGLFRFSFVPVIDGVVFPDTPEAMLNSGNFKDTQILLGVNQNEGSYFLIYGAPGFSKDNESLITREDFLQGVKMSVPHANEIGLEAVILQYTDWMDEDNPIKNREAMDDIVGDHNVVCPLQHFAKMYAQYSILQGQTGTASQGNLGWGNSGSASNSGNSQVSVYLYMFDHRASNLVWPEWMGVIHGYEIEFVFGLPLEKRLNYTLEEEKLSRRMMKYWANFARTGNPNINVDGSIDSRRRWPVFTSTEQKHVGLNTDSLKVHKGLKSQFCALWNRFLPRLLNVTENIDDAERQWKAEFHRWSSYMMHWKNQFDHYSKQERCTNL
UniProt P22303, 32-617 isoform 2 limits assumed: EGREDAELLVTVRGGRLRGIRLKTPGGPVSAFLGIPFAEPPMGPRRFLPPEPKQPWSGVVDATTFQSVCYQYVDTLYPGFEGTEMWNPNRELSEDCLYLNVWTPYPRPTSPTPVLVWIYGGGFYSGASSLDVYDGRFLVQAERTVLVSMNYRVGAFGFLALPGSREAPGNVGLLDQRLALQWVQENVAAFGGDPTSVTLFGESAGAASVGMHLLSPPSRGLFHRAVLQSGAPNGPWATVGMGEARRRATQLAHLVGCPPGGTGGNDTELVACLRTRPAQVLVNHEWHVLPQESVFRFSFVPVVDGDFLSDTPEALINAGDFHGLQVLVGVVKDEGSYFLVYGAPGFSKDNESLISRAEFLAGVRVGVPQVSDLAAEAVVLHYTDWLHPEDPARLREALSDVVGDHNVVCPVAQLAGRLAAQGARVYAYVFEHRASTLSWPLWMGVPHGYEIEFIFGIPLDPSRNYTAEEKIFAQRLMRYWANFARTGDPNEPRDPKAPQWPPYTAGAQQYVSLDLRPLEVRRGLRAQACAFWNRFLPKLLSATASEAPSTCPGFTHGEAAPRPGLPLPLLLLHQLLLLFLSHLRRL

Broadly, the % Inhibition is the percentage by which the read-out fell short of the control. Higher therefore signals a response far below the control.

One assay deals with electric eel AChE (Electrophorus electricus, UniProt O42275). In words: Reversible (competitive) inhibition of electric eel AChE. The class given is biochemical.
Assay [1] concerns the target electric eel acetylcholinesterase (Electrophorus electricus, UniProt O42275). In words: Irreversible inhibition of electric eel AChE. The class given is biochemical. As to conditions: second order inhibition rate constant.
Assay [2] addresses human erythrocyte acetylcholinesterase (Homo sapiens, UniProt P22303). In words: Irreversible inhibition of human erythrocyte AChE. The class given is biochemical. The conditions noted are these: for anti AChE activity with human AChE relative to pyridostigmine and physostigmine: in vitro; for kobs/[I] (human): second order inhibition rate constant.
The subject of another assay is acetylcholinesterase. In words: Irreversible inhibition of AChE, species of enzyme not stated.

On to `CN(C)C(=O)Oc1ccc[n+](C)c1C=NNc1c(Cl)cc(Cl)cc1Cl`, for which the “% Inhibition” value on electric eel AChE (0.15 mM inhibitor) stood at 48%; on electric eel AChE (0.35 mM inhibitor), 75%; on electric eel AChE (0.45 mM inhibitor), 82%.
`COc1ccc(CON=Cc2c(OC(=O)N(C)C)ccc[n+]2C)cc1`: the “kobs/[I] (eel)” value in assay [1] stood at 5000 M⁻¹ s⁻¹. The “anti AChE activity with human AChE relative to pyridostigmine and physostigmine” value in assay [2] was “greater anti AChE activity in vitro with human AChE than either pyridostigmine or physostigmine”. For the same compound, the “half-life for inactivation of AChE” value with acetylcholinesterase is recorded as “about 9 sec”.
Take `CN(C)C(=O)Oc1ccc[n+](C)c1C=NOCc1ccccc1`: the “kobs/[I] (eel)” value in assay [1] amounted to 1700 M⁻¹ s⁻¹. In addition, in assay [2], the “anti AChE activity with human AChE relative to pyridostigmine and physostigmine” value is “greater anti AChE activity in vitro with human AChE than either pyridostigmine or physostigmine”; the “kobs/[I] (human)” value turned out to be 68000 M⁻¹ s⁻¹.
For `CN(C)C(=O)Oc1ccc[n+](C)c1C=NNC(N)=O`, the “kobs/[I] (eel)” value in assay [1] came out at 25 M⁻¹ s⁻¹. Besides, in assay [2], the “kobs/[I] (human)” value came to 2200 M⁻¹ s⁻¹.
For `CN(C)C(=O)Oc1ccc[n+](C)c1C=NOC(c1ccccc1)c1ccccc1`, the “kobs/[I] (eel)” value in assay [1] came out at 870 M⁻¹ s⁻¹. Further, in assay [2], the “kobs/[I] (human)” value worked out at 1100 M⁻¹ s⁻¹.
